Source: patent US9532990B2 (Zhejiang DTRM Biopharma Co. Ltd., priority 2014, dated 2017)

The chains behind the UniProt entries cited, without tags or fusion partners. Where a name states a change or a piece, a line headed by the entry shows the natural chain unless it says otherwise.
UniProt Q06187: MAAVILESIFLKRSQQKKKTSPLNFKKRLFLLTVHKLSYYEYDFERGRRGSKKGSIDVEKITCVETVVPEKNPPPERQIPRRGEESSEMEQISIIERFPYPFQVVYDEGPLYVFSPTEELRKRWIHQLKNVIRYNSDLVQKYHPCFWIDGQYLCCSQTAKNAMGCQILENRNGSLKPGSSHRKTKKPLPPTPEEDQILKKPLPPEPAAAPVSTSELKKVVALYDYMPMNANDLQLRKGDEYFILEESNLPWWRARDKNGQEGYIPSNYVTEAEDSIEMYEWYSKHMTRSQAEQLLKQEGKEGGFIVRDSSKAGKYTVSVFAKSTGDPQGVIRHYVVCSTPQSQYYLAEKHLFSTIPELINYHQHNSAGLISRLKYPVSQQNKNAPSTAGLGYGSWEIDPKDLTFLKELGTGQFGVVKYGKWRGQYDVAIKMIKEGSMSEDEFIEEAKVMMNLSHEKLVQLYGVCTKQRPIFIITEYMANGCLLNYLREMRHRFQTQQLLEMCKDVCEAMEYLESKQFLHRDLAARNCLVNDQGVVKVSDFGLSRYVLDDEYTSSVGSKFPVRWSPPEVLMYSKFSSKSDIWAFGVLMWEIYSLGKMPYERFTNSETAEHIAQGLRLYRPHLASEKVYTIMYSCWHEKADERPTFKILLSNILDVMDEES

target: BTK wild type (Homo sapiens (Human), UniProt Q06187); experiment: Inhibition assay of BTK kinase activity (HTRF); format: biochemical; settings: all compounds with IC50 of less 10 nM; read-out: IC50 (BTK)

| SMILES | IC50 [nM] |
| --- | --- |
| C=CC(=O)N1CCC(n2nc(-c3ccc(Oc4c(F)c(F)cc(F)c4F)cc3F)c3c(N)ncnc32)C1 (stereo not shown) [Compound 23, 1-(3-(4-amino-3-(2-fluoro-4-(2,3,5,6-tetrafluorophenoxy)phenyl)-1H-pyrazolo[3,4-d]pyrimidin-1-yl)pyrrolidin-1-yl)prop-2-en-1-one] | < 10 |
| C=CC(=O)N1CC[C@@H](n2nc(-c3ccc(Oc4c(F)c(F)cc(F)c4F)cc3F)c3c(N)ncnc32)C1 [Compound 45, 1-((R)-3-(4-amino-3-(2-fluoro-4-(2,3,5,6-tetrafluorophenoxy)phenyl)-1H-pyrazolo[3,4-d]pyrimidin-1-yl)pyrrolidin-1-yl)prop-2-en-1-one] | < 10 |
| C=CC(=O)N1CC[C@@H](n2nc(-c3ccc(C(=O)c4cccc(F)c4)cc3F)c3c(N)ncnc32)C1 [Compound 73, 1-((R)-3-(4-amino-3-(2-fluoro-4-(3-fluorobenzoyl)phenyl)-1H-pyrazolo[3,4-d]pyrimidin-1-yl)pyrrolidin-1-yl)prop-2-en-1-one] | < 10 |
| [2H]/C=C\C(=O)N1CC[C@@H](n2nc(-c3ccc(Oc4c(F)c(F)cc(F)c4F)cc3F)c3c(N)ncnc32)C1 [Compound 121, (Z)-1-((R)-3-(4-amino-3-(2-fluoro-4-(2,3,5,6-tetrafluorophenoxy)phenyl)-1H-pyrrolo[2,3-d]pyrimidin-1-yl)pyrrolidin-1-yl)-3-deuterium-prop-2-en-1-one] | < 10 |
| [2H]/C=C/C(=O)N1CC[C@@H](n2nc(-c3ccc(Oc4c(F)c(F)cc(F)c4F)cc3F)c3c(N)ncnc32)C1 [Compound 120, (E)-1-((R)-3-(4-amino-3-(2-fluoro-4-(2,3,5,6-tetrafluorophenoxy)phenyl)-1H-pyrrolo[2,3-d]pyrimidin-1-yl)pyrrolidin-1-yl)-3-deuterium-prop-2-en-1-one] | < 10 |

same assay, conditions: read-out: BTK IC50

| SMILES | IC50 [nM] |
| --- | --- |
| C=CC(=O)N1CC[C@H](n2nc(-c3ccc(Oc4c(F)c(F)cc(F)c4F)cc3F)c3c(N)ncnc32)C1 [Compound 46, 1-((S)-3-(4-amino-3-(2-fluoro-4-(2,3,5,6-tetrafluorophenoxy)phenyl)-1H-pyrazolo[3,4-d]pyrimidin-1-yl)pyrrolidin-1-yl)prop-2-en-1-one] | 21 |
| CNC(=N)N1CCCC(n2nc(-c3ccc(Oc4c(F)c(F)cc(F)c4F)cc3F)c3c(N)ncnc32)C1 (stereo not shown) [Compound 53, 3-[4-amino-3-[2-fluoro-4-(2,3,5,6-fluorophenoxy)phenyl]-1H-pyrazolo[3,4-d]pyrimidine-1-yl]piperidine-1-carboxamidine] | 1650 |
| C=CC(=O)N1CC[C@@H](n2nc(-c3ccc(C(=O)c4ccc(F)cc4)cc3F)c3c(N)ncnc32)C1 [Compound 71, 1-((R)-3-(4-amino-3-(2-fluoro-4-(4-fluorobenzoyl)phenyl)-1H-pyrazolo[3,4-d]pyrimidin-1-yl)pyrrolidin-1-yl)prop-2-en-1-one] | 6 |
| Nc1ncnc2c1c(-c1ccc(Oc3c(F)c(F)cc(F)c3F)cc1F)nn2C1CCC(N2C(=O)C=CC2=O)CC1 (stereo not shown) [Compound 35, 1-(4-(4-amino-3-(2-fluoro-4-(2,3,5,6-tetrafluorophenoxy)phenyl)-1H-pyrazolo[3,4-d]pyrimidin-1-yl)cyclohexyl)-1H-pyrrole-2,5-dione] | 81 |
| C=CC(=O)N1CCCC(n2nc(-c3ccc(C(=O)c4cccc(F)c4)cc3F)c3c(N)ncnc32)C1 (stereo not shown) [Compound 5, 1-(3-(4-amino-3-(2-fluoro-4-(3-fluorobenzoyl)phenyl)-1H-pyrazolo[3,4-d]pyrimidin-1-yl)piperidin-1-yl)prop-2-en-1-one] | 2 |
